The entries are a selection whose mix differs from that of the whole data set. Some tests of the compounds listed are not included; inactive here does not mean inactive elsewhere. Activity calls are given as the source filed them.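 Rule for the calls: active = inhibition above the screen-wide mean plus 3 SD (cut at about 13% in these data); inactive = the rest.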
test system: HIV-1 integrase (with human LEDGF/p75); assay: blockers of LEDGF/p75-dependent integrase strand transfer – biochemical, TR-FRET, high throughput, primary screen (AID 743269); details: TR-FRET IN-LEDGF/p75 DNA integration, Eu/Cy5; at 3.7 µM; hits give high values;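 note: signal is the Cy5 over europium emission ratio at 671 and 618 nm; 0% = plate median of compound wells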

| Structure (SMILES) | inhibition |
| --- | --- |
| O=C(OC1CN2CCC1CC2)C(CO)(c1ccccc1)c1ccccc1 (stereo unspecified) | inactive: -2.49% |
| C=C(C)C#CC(O)(C(=O)OC1CCN(C)CC1)c1ccccc1 (stereo unspecified) | inactive: -6.16% |
| COc1ccc(Br)c(C(=O)NCC2(N3CCCCC3)CCCCC2)c1 | inactive: 0.1% |
| CC(C)Oc1ccc(C(=O)NCC2(N(C)C)CCCCC2)cc1 | inactive: -0.48% |
| O=C(OCCN1CCCC1)C(O)(c1ccccc1)c1ccccc1 | inactive: 0.57% |
| CN(C)c1cccc(C(=O)NCC2(N(C)C)CCCCC2)c1 | inactive: 0.49% |
| CN(C)C1(CNC(=O)c2ccc(Br)cc2)CCCCC1 | inactive: -5.56% |
| COc1cc(C(=O)NCC2(N(C)C)CCCCC2)c([N+](=O)[O-])cc1OC | inactive: -0.73% |
| COc1cccc(C(=O)NCC2(N3CCCCC3)CCCCC2)c1 | inactive: 1.59% |
| COc1ccc(Cl)cc1C(=O)NCC1(N(C)C)CCCCC1 | inactive: 5.29% |
| O=C(NCC1(N2CCCCC2)CCCCC1)c1cccc(Cl)c1 | inactive: -3.94% |
| Cc1ccccc1C(=O)NCC1(N2CCCCC2)CCCCC1 | inactive: -1.04% |
| CN(C)C1CCCC1OC(=O)C(O)(c1ccccc1)c1ccccc1 (stereo unspecified) | inactive: 1.02% |
| CN(C)c1ccc(C(=O)NCC2(N(C)C)CCCCC2)cc1 | inactive: 0.67% |
| C=CCN1CCN(CCOC(=O)C(O)(c2ccccc2)c2ccccc2)CC1 | inactive: 0.14% |
| O=C(NCC1(N2CCCCC2)CCCCC1)c1cc(F)c(F)cc1Cl | inactive: 2.58% |
| COc1ccc(C(=O)NCC2(N(C)C)CCCCC2)cc1 | inactive: -0.03% |
| Cc1cc(C(=O)NCC2(N3CCCCC3)CCCCC2)ccc1[N+](=O)[O-] | inactive: -0.3% |
| CCN1CCCC(OC(=O)C2(O)c3ccccc3C=Cc3ccccc32)C1 (stereo unspecified) | inactive: -3.46% |
| O=C(NCC1(N2CCCCC2)CCCCC1)c1cccc(Br)c1 | inactive: -0.38% |
| O=C(NCC1(N2CCCCC2)CCCCC1)c1cc([N+](=O)[O-])ccc1Cl | inactive: 2.37% |
| CN1[C@@H]2CC[C@H]1CC(OC(=O)C(O)(c1ccccc1)c1ccccc1)C2 (stereo partly specified) | inactive: 1.29% |
| CCN(CC)CC(C)C(C)OC(=O)C(O)(c1ccccc1)c1ccccc1 (stereo unspecified) | inactive: -0.88% |
| COc1cc(SC)ccc1C(=O)NCC1(N(C)C)CCCCC1 | inactive: -3.89% |
| CC(C)N1C(=O)CC2(CCN(CCOC(=O)C(O)(c3ccccc3)c3ccccc3)CC2)C1=O | inactive: -0.94% |
| Cc1ccc(C(=O)NCC2(N3CCCCC3)CCCCC2)cc1 | inactive: -0.03% |

Source: PubChem BioAssay AID743269 (The Scripps Research Institute Molecular Screening Center, 2014)
